# Experiments:
# Sequences of proteins named here, by UniProt entry; tags and fusion partners are left off. A change or cut given only in a name is not applied to a line headed by its entry.
# UniProt Q9UKE5: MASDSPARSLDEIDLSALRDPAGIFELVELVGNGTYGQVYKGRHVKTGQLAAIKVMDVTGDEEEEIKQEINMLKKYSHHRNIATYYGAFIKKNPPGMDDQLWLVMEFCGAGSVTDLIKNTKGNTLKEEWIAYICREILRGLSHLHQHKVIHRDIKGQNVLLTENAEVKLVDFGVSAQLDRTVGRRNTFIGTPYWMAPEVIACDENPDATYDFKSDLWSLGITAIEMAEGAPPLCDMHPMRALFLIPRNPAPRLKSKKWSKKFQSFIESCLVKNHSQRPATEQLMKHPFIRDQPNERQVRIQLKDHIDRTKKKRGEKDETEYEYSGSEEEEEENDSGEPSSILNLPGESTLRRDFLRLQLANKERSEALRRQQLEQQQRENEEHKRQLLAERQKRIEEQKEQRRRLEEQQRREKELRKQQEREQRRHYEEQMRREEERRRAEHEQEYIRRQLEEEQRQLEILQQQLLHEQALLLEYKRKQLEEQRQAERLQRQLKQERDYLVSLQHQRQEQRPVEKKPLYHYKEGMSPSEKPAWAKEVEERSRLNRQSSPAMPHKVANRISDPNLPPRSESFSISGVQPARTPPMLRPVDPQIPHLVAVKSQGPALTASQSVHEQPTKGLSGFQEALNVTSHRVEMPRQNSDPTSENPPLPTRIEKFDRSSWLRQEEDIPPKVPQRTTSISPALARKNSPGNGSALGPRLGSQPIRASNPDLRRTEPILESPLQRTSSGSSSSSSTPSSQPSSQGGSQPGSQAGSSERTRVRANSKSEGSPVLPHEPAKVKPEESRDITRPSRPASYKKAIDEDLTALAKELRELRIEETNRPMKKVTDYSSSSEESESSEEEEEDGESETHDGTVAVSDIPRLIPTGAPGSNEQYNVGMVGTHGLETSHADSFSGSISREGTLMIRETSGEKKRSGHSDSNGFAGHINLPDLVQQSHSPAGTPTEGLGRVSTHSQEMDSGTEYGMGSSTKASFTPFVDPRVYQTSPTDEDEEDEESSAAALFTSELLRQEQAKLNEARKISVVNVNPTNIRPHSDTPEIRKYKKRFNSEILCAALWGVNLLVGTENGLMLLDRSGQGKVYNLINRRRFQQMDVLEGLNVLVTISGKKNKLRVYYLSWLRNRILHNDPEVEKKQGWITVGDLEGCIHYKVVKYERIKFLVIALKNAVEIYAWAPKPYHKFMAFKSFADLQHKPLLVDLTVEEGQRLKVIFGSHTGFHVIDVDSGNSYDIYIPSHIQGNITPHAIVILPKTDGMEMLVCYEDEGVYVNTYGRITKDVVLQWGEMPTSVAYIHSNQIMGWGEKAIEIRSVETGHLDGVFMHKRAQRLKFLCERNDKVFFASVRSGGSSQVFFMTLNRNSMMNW
# Experiment in all cases: apparent dissociation constant pKd app (kinobead competition) (-log10(M)); higher = stronger binding
# PRKD3 = biological target: T1, PRKD3 (UniProt O94806)
# T1 sequence (whole entry): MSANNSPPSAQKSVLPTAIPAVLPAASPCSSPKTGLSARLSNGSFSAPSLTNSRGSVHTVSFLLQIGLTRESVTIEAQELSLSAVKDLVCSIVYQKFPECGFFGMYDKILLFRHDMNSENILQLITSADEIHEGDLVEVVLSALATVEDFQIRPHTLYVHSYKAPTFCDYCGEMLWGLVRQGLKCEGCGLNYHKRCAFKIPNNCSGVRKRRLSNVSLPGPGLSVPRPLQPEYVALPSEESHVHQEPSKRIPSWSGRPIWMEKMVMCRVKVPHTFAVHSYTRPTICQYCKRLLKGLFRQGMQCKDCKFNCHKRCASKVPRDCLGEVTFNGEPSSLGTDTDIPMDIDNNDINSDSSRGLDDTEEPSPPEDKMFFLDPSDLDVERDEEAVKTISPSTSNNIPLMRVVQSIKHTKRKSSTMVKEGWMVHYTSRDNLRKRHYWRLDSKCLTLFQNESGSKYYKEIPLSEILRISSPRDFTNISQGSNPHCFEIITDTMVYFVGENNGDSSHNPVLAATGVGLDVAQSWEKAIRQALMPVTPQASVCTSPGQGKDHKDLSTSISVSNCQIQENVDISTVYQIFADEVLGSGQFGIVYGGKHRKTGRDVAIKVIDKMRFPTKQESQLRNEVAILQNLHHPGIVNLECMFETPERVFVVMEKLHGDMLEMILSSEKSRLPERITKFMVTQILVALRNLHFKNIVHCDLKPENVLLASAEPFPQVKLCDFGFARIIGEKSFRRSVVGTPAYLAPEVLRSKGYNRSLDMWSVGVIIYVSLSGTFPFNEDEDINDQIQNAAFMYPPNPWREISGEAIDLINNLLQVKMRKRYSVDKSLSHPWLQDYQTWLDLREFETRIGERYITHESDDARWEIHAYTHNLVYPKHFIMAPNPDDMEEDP
# DSTYK = biological target: T2, DSTYK (UniProt Q6XUX3)
# T2 sequence (whole entry): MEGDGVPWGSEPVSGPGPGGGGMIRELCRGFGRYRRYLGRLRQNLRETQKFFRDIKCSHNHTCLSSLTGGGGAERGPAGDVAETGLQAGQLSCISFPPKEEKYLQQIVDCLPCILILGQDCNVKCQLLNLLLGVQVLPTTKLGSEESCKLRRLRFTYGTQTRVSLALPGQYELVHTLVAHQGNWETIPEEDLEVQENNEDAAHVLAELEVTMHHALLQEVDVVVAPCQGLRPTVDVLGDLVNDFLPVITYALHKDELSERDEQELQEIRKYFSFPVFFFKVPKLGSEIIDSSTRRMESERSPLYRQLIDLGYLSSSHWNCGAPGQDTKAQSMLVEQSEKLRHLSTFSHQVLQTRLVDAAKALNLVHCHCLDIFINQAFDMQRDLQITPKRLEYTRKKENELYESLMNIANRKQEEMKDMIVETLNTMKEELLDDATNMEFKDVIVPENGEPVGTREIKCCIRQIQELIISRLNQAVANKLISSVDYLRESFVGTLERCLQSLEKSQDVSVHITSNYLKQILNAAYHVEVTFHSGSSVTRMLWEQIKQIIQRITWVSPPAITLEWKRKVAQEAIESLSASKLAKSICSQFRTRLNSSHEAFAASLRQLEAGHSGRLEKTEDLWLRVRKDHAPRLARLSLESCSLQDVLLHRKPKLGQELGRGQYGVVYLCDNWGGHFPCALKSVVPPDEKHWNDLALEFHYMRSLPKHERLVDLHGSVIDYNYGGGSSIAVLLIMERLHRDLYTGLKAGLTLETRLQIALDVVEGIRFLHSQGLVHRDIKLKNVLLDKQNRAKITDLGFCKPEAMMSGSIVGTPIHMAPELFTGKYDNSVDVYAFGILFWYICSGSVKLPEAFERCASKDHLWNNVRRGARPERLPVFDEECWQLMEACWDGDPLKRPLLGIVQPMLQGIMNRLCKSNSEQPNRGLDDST
# TNIK = TNIK (UniProt Q9UKE5)
# LATS1 = biological target: T3, LATS1 (UniProt O95835)
# T3 sequence (whole entry): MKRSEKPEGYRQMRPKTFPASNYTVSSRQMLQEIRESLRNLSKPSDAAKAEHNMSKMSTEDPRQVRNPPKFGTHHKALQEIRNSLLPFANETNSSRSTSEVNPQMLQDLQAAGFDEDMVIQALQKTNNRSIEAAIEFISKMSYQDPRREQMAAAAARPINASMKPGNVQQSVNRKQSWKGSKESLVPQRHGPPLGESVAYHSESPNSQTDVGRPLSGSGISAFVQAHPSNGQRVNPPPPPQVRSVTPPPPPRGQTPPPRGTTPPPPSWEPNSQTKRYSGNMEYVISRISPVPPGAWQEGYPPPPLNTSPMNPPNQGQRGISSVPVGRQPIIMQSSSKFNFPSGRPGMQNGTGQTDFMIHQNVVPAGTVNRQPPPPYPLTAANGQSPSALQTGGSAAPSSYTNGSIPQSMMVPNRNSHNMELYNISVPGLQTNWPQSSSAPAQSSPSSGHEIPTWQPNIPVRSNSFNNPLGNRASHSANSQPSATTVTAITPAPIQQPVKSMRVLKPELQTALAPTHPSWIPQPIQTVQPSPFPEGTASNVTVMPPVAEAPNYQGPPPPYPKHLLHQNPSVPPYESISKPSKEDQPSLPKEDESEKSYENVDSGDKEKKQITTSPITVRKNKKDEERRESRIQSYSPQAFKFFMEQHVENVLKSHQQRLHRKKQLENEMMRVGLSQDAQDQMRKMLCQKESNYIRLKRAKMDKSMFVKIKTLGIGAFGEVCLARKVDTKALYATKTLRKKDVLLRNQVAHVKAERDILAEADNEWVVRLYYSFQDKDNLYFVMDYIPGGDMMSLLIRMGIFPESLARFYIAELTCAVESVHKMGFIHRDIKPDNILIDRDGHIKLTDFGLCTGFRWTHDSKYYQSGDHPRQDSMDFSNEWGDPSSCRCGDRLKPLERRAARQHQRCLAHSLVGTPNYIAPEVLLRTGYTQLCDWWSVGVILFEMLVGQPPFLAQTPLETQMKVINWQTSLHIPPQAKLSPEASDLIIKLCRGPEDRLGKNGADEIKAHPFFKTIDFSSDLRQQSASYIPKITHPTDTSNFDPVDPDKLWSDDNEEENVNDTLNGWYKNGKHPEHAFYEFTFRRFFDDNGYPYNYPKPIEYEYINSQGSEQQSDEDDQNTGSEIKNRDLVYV
apparent dissociation constant pKd app (-log10) (PRKD3),apparent dissociation constant pKd app (-log10) (DSTYK),apparent dissociation constant pKd app (-log10) (TNIK),apparent dissociation constant pKd app (-log10) (LATS1),Compound
< 4.6,< 4.5,< 4.6,< 4.5,O=C(c1cc(Cc2n[nH]c(=O)c3ccccc23)ccc1F)N1CCN(C(=O)C2CC2)CC1 [Olaparib]
< 4.6,< 4.5,< 4.6,< 4.5,NC(=O)c1cccc2cn(-c3ccc([C@@H]4CCCNC4)cc3)nc12 [Niraparib]
< 4.6,< 4.5,< 4.6,< 4.5,Cn1ncnc1[C@H]1c2n[nH]c(=O)c3cc(F)cc(c23)N[C@@H]1c1ccc(F)cc1 [Talazoparib]

# — the supplement of paper PMC11403291
